Measurements reported in publication PMC5308240, “A Novel Toxin from Haplopelma lividum Selectively Inhibits the NaV1.8 Channel and Possesses Potent Analgesic Efficacy” (Toxins, 2016).

Sequences of proteins named here, by UniProt entry; tags and fusion partners are left off.
UniProt Q9Y5Y9, whole entry: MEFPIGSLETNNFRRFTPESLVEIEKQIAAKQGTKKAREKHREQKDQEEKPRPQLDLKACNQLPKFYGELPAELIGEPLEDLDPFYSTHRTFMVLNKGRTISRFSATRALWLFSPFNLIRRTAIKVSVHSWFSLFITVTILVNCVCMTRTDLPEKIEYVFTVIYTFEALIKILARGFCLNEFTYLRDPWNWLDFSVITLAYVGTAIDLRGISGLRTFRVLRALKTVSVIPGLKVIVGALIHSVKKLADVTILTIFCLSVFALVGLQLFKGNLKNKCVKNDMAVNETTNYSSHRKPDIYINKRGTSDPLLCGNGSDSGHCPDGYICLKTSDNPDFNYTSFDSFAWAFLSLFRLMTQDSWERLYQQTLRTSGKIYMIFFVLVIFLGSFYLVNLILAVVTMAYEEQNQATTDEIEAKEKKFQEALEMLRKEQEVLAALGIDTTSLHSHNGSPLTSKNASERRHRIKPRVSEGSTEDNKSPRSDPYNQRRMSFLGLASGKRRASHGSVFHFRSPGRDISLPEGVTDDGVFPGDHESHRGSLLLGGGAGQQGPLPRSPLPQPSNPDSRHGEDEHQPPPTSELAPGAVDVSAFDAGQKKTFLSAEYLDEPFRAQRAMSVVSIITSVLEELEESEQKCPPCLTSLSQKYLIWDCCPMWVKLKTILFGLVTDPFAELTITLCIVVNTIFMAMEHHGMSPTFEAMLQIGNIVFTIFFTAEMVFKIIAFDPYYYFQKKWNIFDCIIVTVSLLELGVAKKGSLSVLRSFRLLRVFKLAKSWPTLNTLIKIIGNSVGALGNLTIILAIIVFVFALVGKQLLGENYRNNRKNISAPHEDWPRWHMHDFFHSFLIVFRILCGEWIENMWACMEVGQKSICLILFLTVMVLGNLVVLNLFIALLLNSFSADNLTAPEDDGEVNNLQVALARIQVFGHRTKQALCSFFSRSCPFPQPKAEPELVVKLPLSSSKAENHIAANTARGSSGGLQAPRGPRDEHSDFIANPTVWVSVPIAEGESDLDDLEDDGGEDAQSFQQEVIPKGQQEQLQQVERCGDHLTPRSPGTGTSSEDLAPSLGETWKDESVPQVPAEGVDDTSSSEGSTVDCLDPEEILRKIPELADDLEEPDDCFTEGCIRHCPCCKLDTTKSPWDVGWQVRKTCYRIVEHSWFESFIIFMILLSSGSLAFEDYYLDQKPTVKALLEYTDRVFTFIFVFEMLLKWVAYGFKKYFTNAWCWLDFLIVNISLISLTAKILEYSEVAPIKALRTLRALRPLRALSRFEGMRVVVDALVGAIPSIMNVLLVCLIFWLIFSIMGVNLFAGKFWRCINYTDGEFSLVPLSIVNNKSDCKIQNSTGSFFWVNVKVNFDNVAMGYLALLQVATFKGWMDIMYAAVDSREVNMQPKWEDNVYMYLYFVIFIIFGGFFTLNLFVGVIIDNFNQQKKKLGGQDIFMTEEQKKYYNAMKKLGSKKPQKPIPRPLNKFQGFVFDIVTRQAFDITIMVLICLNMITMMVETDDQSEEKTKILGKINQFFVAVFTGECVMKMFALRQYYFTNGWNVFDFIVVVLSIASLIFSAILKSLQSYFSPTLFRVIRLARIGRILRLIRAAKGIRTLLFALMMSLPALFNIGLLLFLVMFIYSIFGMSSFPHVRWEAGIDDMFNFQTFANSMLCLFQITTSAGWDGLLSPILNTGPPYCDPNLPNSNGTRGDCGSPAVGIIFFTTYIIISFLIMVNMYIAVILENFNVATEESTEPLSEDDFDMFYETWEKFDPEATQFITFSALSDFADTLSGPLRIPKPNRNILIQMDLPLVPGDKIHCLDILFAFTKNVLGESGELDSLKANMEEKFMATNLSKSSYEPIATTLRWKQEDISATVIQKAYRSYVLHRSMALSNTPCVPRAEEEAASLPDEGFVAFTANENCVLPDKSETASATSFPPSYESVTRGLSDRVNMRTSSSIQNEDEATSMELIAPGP

Molecular target: T1, NaV1.8 (Homo sapiens, UniProt Q9Y5Y9)
T1 construct: expressed in transfected cells; host or cells: ND7/23 cells (transient transfection, lipo2000)
Assay: Whole-cell patch clamp on NaV1.8 expressed in ND7/23 cells
Format: cell-based
Conditions: human NaV1.8 with β1 and eGFP in ND7/23 cells
Protocol: Therefore, the activities of µ-TRTX-Hl1a on human sodium channel subtypes NaV1.1–NaV1.8 were further investigated. Sodium channel subtypes β1 and eGFP were transiently transfected into ND7/23 cells and currents were elicited by a depolarizing potential of −10 mV from a holding potential of −80 mV. 2 µM µ-TRTX-Hl1a could reduce about 50% of the NaV1.8 current and the inhibition was dose-dependent (Figure 5A).
Human sodium channel subtype Nav1.1–Nav1.7 were transiently transfected into HEK293T cells and NaV1.8, β1, and eGFP were transiently transfected into ND7/23cells following the manufacture instruction (lipo2000, Invitrogen, Carlsbad, CA, USA). The whole cell patch clamp recordings were carried out as previously described. The standard pipette solution contained (in mM) 140 CsF, 1 EGTA, 10 NaCl, 3 KCl, and 10 MgCl2, PH 7.3. […]
Experiments data were acquired and analyzed by using Clampfit 10.0 (Molecular Devices, Sunnyvale, CA, USA) and Sigmaplot (Systat Software Incx, San Jose, CA, USA) programs. Data were analyzed using the Clampfit (Axon, Sunnyvale, CA, USA) and Sigmaplot 9.0 (Systat Software Incx, San Jose, CA, USA) software programs. […] Conductance (G)–voltage relationships were determined from peak current (I) versus voltage relationships as G = I/(V − Vrev), where V was the test potential, and Vrev was the extrapolated reversal potential. Data were analyzed by using GraphPad Prism 4.

**Q.** `CC[C@H](C)[C@@H]1NC(=O)[C@H](CCCNC(=N)N)NC(=O)[C@H]([C@@H](C)O)NC(=O)[C@@H]2CSSC[C@H](NC(=O)[C@H]([C@@H](C)O)NC(=O)[C@H](Cc3c[nH]c4ccccc34)NC(=O)[C@H](Cc3ccc(O)cc3)NC(=O)[C@H]([C@@H](C)O)NC(=O)[C@H](CC(=O)O)NC(=O)[C@H](CO)NC(=O)[C@@H]3CSSC[C@@H]4NC(=O)[C@@H]5CCCN5C(=O)[C@H](Cc5c[nH]c6ccccc56)NC(=O)[C@H]([C@@H](C)O)NC(=O)[C@H](CCCCN)NC(=O)[C@H](CCCCN)NC(=O)CNC(=O)[C@@H](NC(=O)[C@H](CCC(=O)O)NC(=O)[C@@H](N)[C@@H](C)O)CSSC[C@H](NC(=O)[C@H](CSSC[C@@H](C(=O)N[C@H](C(=O)O)C(C)C)NC1=O)NC(=O)[C@H](CC(=O)O)NC(=O)[C@H](CCC(=O)O)NC(=O)[C@H](CO)NC(=O)[C@H]([C@@H](C)O)NC(=O)[C@H](CCC(=O)O)NC4=O)C(=O)N[C@@H](CC(=O)O)C(=O)NCC(=O)N[C@@H](CC(=O)O)C(=O)N3)C(=O)N[C@@H](Cc1c[nH]cn1)C(=O)N[C@@H](CC(C)C)C(=O)NCC(=O)N[C@@H](Cc1ccccc1)C(=O)NCC(=O)N2` [µ-TRTX-Hl1a] was tested. Which “reduction of NaV1.8 current” value (2 µM toxin, depolarization to −10 mV from −80 mV) did it give?
**A.** about 50%

**Q.** And the IC50 (dose-response, mean ± S.E., SEM)?
**A.** 2190 ± 70 nM
